## Binding of CDR-mutated scFvs to a peptide of the spike HR2 region

Binding partner: SARS-CoV-2 spike HR2 peptide, sequence PDVDLGDISGINAS.

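Phage display of a naive human antibody library on the peptide gave the parent. In library AAYL49, one, two or three CDR residues were substituted; doubles and triples were drawn at random. In AlphaSeq, yeast of one mating type display the scFv and yeast of the other type display the target. Pairs that bind mate more often; barcode pairs of the diploids are counted by sequencing. Scores were corrected for input abundance and mapped to Kd with protein pairs of known affinity run in the same pool. Mating was done three times.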

Each scFv is VH, a (GGGGS)3 linker, VL, as in the parent Ab-14, and differs from it in the CDRs of the heavy chain only.
VH: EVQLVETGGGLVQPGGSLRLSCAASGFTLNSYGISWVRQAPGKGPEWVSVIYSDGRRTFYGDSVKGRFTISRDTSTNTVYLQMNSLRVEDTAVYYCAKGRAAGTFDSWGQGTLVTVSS
VL: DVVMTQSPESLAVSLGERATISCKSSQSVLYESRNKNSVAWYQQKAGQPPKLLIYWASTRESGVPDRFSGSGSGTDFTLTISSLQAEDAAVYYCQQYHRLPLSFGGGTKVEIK

Each variant's VH is given in full. Values are log10 of the apparent Kd in nM; lower means stronger binding. A mean of the replicates is given; it leaves out those without a signal. Where no diploid with the target was found in that replicate, the entry reads "ND": below detection, most likely a poor binder, though not proof of it. Nonspecific signal, from three strains lacking the peptide, appeared in 15% of pairings of library AAYL49, centred on 4.06 (5% of these signals below 2.83); values are not corrected for it. For each scFv, signals with the empty controls are counted beside the result, with their mean in brackets.

VH	log10 Kd (nM) by replicate	mean, log10 nM	control signals
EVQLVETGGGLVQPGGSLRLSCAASGFTLNSYGISWVRQAPGKGPEWVSVCYQDGRRTFYGDSVKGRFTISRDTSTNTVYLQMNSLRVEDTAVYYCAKGRAAHTFDSWGQGTLVTVSS	5.41 / ND / ND	5.41	4/9 (4.42)
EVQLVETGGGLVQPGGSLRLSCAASGFTLNDSGISWVRQAPGKGPEWVSVIYSDGRRTFIGDSVKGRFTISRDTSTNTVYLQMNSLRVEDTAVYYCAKGRAAGTFDSWGQGTLVTVSS	3.41 / 4.03 / 5.45	4.30	4/9 (4.34)
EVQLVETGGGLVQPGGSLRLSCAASGFTLNSYWISWVRQAPGKGPEWVSVIYSDGRVTFYGDSVKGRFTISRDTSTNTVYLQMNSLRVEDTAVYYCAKRRAAGTFDSWGQGTLVTVSS	ND / 4.24 / ND	4.24	1/9 (3.80)
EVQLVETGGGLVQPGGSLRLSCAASTFTLNSYGISWVRQAPGKGPEWVSVIYSDGRRSFYGDSVKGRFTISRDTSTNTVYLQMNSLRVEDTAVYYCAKGRAAGTFKSWGQGTLVTVSS	4.15 / ND / ND	4.15	1/9 (3.35)
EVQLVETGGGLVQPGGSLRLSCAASGFTLNSYLISWVRQAPGKGPEWVSVIYKDGRRTFYLDSVKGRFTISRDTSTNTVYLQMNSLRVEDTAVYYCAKGRAAGTFDSWGQGTLVTVSS	ND / 3.99 / ND	3.99	5/9 (4.21)
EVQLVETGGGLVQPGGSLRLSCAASGFTLNSYGISWVRQAPGKGPEWVSVIYSDGRRTFYGDSHKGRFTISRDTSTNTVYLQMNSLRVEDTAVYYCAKGRDFGTFDSWGQGTLVTVSS	4.70 / ND / ND	4.70	2/9 (3.94)
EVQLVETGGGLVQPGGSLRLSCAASGFTLNSYGISWVRQAPGKGPEWVSVIYSDGRRMFYGCSVCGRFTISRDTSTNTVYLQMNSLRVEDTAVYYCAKGRAAGTFDSWGQGTLVTVSS	ND / 5.10 / ND	5.10	0/9
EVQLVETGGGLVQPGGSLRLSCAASGFTLNSYGNSWVRQAPGKGPEWVSVIYSDGRRTFYGDSVKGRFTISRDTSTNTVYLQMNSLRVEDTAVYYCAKGRAALTFHSWGQGTLVTVSS	ND / ND / ND	ND	0/9
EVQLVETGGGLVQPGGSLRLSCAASGFTLNSYGFSWVRQAPGKGPEWVSVIYSDGRRTFYGDSVKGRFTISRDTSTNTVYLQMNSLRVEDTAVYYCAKGIAAGTFDSWGQGTLVTVSS	ND / ND / ND	ND	3/9 (3.34)
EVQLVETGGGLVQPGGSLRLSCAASGFTLNSYGTSWVRQAPGKGPEWVSVIYSDGRRTPYGDSVKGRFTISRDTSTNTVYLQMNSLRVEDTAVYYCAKGRAAGDFDSWGQGTLVTVSS	ND / ND / ND	ND	3/9 (3.43)
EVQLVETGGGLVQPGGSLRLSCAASGFTLNSYGNSWVRQAPGKGPEWVSVIYSDGRRTFYGDDVKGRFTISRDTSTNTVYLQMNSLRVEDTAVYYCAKGRAAGTSDSWGQGTLVTVSS	ND / ND / ND	ND	0/9
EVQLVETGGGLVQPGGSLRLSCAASGFTLNSYGISWVRQAPGKGPEWVSVIYSDGRRTFYGDSVKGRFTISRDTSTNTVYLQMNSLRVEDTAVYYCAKGRCAGTFDSWGQGTLVTVSS	1.51 / 1.50 / 1.40	1.47	2/9 (4.59)
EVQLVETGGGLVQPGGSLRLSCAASGFTRNSYGIQWVRQAPGKGPEWVSVIYSDGRRTFKGDSVKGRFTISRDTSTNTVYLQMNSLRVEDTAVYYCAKGRAAGTFDSWGQGTLVTVSS	ND / ND / ND	ND	3/9 (4.39)
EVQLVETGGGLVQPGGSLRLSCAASGFTLNSYQISWVRQAPGKGPEWVSVIYSDGRRTFYGDSVHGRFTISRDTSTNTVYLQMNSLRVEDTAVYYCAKGRAAGTFDSWGQGTLVTVSS	ND / ND / ND	ND	0/9
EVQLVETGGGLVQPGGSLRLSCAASGFTLNSRGISWVRQAPGKGPEWVSVIYSDGRRTFYGDSVKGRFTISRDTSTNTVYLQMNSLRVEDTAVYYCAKGRAAGTFDSWGQGTLVTVSS	5.94 / ND / 4.30	5.12	1/9 (3.18)

The opening 2 entries, copied out:

{"VH": "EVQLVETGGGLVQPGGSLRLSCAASGFTLNSYGISWVRQAPGKGPEWVSVCYQDGRRTFYGDSVKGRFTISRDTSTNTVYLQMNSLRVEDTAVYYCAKGRAAHTFDSWGQGTLVTVSS", "log10 Kd (nM) by replicate": "5.41 / ND / ND", "mean, log10 nM": "5.41", "control signals": "4/9 (4.42)"}
{"VH": "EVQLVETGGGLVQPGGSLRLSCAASGFTLNDSGISWVRQAPGKGPEWVSVIYSDGRRTFIGDSVKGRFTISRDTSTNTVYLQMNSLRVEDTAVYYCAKGRAAGTFDSWGQGTLVTVSS", "log10 Kd (nM) by replicate": "3.41 / 4.03 / 5.45", "mean, log10 nM": "4.30", "control signals": "4/9 (4.34)"}

Source: Engelhart et al. 2022 (doi:10.1038/s41597-022-01779-4), MIT Lincoln Laboratory and A-Alpha Bio; data file from the FLAb repository.